Results reported in patent US20250017964A1, “ENGINEERING OR INDUCING PDGF AND/OR PDGFR SIGNALING TO ENHANCE NK CELL THERAPY” (City of Hope, priority 2021, published 2025).

What was measured:
Assay type in all cases: cell-based
[1] = system: PDGFRβ expression in human NK cells; test: Cytokine-induced PDGFRβ expression in purified human NK cells, flow cytometry
Procedure: FIGS. 1A-1J. IL-15 induces PDGFRβ expression in human NK cells. (A-C) NK cells were purified from PBMCs of healthy donors and stimulated with IL-15 (10 ng/ml) for 24 h. Expression levels of PDGFRα and PDGFRβ were examined by flow cytometry. Data shown are representative dot plots (A), percentages (B), and mean fluorescence intensity (MFI) of PDGFRβ in NK cells (C) (n=20). Resting NK cells were used as the control. (D-E) NK cells were treated with various doses of IL-15 for 24 h (D) or with the same dose of IL-15 (10 ng/ml) at the indicated times (E). Data shown are the percentages of PDGFRβ^+ NK cells among total NK cells (n=5). (F) Immunofluorescence analysis of PDGFRβ expression on resting and IL-15-treated NK cells. Sodium-potassium ATPase was used as a cell membrane marker. Bar=20 μm. (G) Expression of PDGFRβ in the cytoplasmic, nuclear, and cell membrane fractions of NK cells determined by immunoblotting. (H-J) CD56thin and CD56^high NK cells were sorted from PBMCs of healthy donors and treated with IL-15 (10 ng/ml) for 24 h. Expression levels of PDGFRβ were then determined by flow cytometry. Data shown are representative dot plots (H), percentages (I), and MFI (J) of PDGFRβ on NK cells (n=6). Data represent three independent experiments. Data shown are means SD. NS, not significant. *P<0.05 and ****P<0.0001.
(§1) FIGS. 7A-7F. PDGFRα expression on human and mouse NK cells and the dose and time course effect of IL-2 on the expression of PDGFRβ. (A) Purified human NK cells were stimulated with IL-2 (10 ng/ml), IL-12 (10 ng/ml), IL-15 (10 ng/ml), IL-18 (10 ng/ml), or their combinations for 24 h, followed by determining the expression levels of PDGFRα by flow cytometry. Data shown are representative histograms and mean fluorescence intensity (MFI) of PDGFRα. (B) Purified human NK cells were stimulated with IL-2 (10 ng/ml), IL-12 (10 ng/ml), IL-15 (10 ng/ml), IL-18 (10 ng/ml), or their combinations for 24 h. Expression levels of PDGFRβ were examined by flow cytometry (n=6). […] (F) Expression levels of PDGFRβ on NK cells from IL-15 transgenic (Tg) mice were determined by flow cytometry. […]

p-p65 = test: Immunoblot of phosphor-p65 in primary human NK cells; settings: 10 ng/ml
From the text: FIGS. 8A-8E. Three downstream signaling pathways activated by IL-15 and the effects of their inhibition on IL-15-induced PDGFRβ expression as well as phosphor-p65 levels in NK cells treated with IL-2 or IL-15. (A) Scheme for the three IL-15 signaling pathways and their inhibitors. (B) Representative dot plots of PDGFRβ expression in NK cells treated with specific inhibitors. (C) Binding sites for p65 in the promoter regions of PDGFRB and PDGF-D genes (predicted from http://jaspar.genereg.net). (D and E) Primary human NK cells were treated with IL-2 (10 ng/ml) or IL-15 (10 ng/ml) for 0, 5, 15, 30, 60, or 120 min. The cells were collected for an immunoblot using anti-phosphor (p)-p65, anti-p65, and anti-actin antibodies. The ratios of p-p65 to actin were calculated using ImageJ (n=3). Data shown represent the mean±SD. NS, not significant, **P<0.01, ****P<0.0001.
RNA was isolated using an RNeasy Mini Kit (QIAGEN) and reversely transcribed to cDNA with a PrimeScript RT Reagent Kit with gDNA Eraser (Takara Bio) according to the manufacturer's protocol. mRNA expression levels were analyzed using SYBR Green qPCR Master Mix and a QuantStudio 12K Flex Real-Time PCR System (both from Thermo Fisher Scientific). […]

murine NK cells = test: PDGFRβ expression in murine splenic NK cells, flow cytometry; settings: splenic NK cells of C57BL/6 mice, mouse cytokines 10 ng/ml, 24 h
Procedure: as §1, with “(n=6). (C and D) Purified human NK cells were treated with various doses of IL-2 as indicated for 24 h (C) or with a specific dose of IL-2 (10 ng/ml) for 72 h, as indicated (D). Data shown are the percentages of PDGFRβ^+ NK cells among total NK cells (n=5).” for “(n=6).”
Cells were stained with the indicated cell-surface markers and/or fixed/permeabilized using a Fixation/Permeabilization Kit (eBioscience). […] Data were analyzed using NovoExpress software (Agilent Technologies).

Substance: IL-2: recombinant human IL-2 (200-02); recombinant murine IL-2 in the mouse NK cell test
- PDGFRβ expression ([1]; cytokine 10 ng/ml, 24 h, IL-15 effect dose- and time-dependent): slightly but not significantly induced PDGFRβ expression
- PDGFRβ expression ([1]; high doses of IL-2 (200 ng/ml), 24 h): could only induce weak levels of PDGFRβ
- PDGFRβ expression ([1]; longer (up to 72 h) stimulation at the low dose (10 ng/ml)): ineffective
- level of phosphor (p)-p65 compared with IL-15 (p-p65; 5 min early time point): slightly higher level of p-p65 than IL-15
- level of phosphor (p)-p65 compared with IL-15 (p-p65; all time points tested (15, 30, 60, 120 min) except 5 min): significantly lower than IL-15
- PDGFRβ expression in murine NK cells (murine NK cells): did not express PDGFRβ
